Values quoted from earlier work as cited in patent publication US6342219B1, “Antibody compositions for selectively inhibiting VEGF” (Board of Regents, The University of Texas System, priority 1999, dated 2002).
pKd: −log10 of the molar value.

Amino acid sequences for entries named in this document (tags omitted). Residues count along the entry.
UniProt P35968, 20-1356: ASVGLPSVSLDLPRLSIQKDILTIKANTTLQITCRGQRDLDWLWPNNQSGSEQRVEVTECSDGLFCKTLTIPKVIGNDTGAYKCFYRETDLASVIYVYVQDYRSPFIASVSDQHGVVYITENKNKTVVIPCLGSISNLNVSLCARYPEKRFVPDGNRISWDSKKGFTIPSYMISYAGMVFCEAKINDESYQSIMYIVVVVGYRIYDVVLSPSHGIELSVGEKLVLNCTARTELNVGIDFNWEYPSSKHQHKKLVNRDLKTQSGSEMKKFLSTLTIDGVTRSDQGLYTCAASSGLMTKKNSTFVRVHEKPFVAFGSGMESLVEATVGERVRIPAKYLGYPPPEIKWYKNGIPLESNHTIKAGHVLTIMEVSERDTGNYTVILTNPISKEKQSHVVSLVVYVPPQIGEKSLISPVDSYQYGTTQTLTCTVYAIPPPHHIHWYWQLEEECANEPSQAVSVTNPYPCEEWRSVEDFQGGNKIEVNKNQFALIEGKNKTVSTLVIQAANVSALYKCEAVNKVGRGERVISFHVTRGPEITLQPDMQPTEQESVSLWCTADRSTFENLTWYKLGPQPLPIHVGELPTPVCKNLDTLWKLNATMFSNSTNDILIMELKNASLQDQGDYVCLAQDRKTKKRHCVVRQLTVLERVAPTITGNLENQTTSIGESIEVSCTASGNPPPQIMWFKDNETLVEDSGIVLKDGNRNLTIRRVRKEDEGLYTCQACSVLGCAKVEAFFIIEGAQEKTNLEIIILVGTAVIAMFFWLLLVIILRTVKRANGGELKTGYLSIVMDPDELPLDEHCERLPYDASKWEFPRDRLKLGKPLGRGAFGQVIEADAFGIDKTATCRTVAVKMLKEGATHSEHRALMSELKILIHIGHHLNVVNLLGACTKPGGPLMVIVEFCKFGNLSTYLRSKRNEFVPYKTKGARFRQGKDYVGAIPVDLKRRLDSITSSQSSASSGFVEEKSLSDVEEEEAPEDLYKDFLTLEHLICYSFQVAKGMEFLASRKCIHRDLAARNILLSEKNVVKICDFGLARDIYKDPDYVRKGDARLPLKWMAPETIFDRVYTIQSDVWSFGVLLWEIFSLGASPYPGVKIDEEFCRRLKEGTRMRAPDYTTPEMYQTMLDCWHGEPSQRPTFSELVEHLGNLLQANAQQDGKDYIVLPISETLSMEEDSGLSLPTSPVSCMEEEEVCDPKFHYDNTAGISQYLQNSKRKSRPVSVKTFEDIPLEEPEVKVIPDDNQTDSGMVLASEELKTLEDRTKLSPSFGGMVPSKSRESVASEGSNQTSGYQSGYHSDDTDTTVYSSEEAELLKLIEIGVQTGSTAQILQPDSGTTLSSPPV

Target: VEGFR2 (Homo sapiens, UniProt P35968)
Details: read-out: Kd of VEGF binding to VEGFR2; cited from earlier work

## VEGF
  pKd: 9.10 to 9.40
